Our source for the max response, negative = inhibition and Potency values is PubChem BioAssay AID720504 (National Center for Advancing Translational Sciences (NCATS), 2013).

Sequences of proteins named here, by UniProt entry; tags and fusion partners are left off.
UniProt P53350, whole entry: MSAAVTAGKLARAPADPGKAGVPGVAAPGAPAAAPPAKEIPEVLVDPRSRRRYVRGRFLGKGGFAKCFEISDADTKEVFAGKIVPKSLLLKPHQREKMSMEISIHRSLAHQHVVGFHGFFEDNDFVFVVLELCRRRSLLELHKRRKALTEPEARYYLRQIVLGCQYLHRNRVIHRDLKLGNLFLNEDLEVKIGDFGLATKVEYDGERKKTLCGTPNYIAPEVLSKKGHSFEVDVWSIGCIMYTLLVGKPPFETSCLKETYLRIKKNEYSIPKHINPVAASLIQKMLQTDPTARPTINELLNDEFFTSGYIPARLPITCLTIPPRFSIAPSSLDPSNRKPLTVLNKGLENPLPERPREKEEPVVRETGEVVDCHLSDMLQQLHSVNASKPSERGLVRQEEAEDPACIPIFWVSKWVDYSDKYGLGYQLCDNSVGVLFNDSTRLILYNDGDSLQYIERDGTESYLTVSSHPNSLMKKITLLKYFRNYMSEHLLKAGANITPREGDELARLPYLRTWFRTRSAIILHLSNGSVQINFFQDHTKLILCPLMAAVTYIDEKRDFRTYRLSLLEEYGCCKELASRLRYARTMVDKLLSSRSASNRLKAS

This is a selection; strong and weak results do not stand in their true shares. Inconclusive results are not listed. Active and inactive are the calls of the source. The call rests on the fitted dose curve; in most records, active means well fitted inhibition curve with a large enough effect; inconclusive means small, poorly fitted or top-dose-only effect; inactive means flat fitted curve, though single readings scatter.
On the % scale 0 is the no-effect control and ±100 the full control effect; potency means the concentration at half of the fitted maximal effect.

The test concerns the target Serine/threonine-protein kinase PLK1 (Homo sapiens) (UniProt P53350). In words: qHTS for Inhibitors of PLK1-PDB (polo-like kinase 1 - polo-box domain): Primary Screen. Further: nearly all actives have a fitted effect of over 65% in size. On max response, negative = inhibition: series mostly up to about 57 µM. To be noted: Plk1 PBD binding of FITC phosphopeptide, fluorescence polarization.
With `COc1ccccc1OP(C)(=O)Nc1c(C)n(C)n(-c2ccccc2)c1=O` (stereo unspecified), the max response, negative = inhibition was inactive: 1.92%.

With `O=C(OCCCN1CCCC1)C(O)(c1ccccc1)C1CCCCC1` (stereo unspecified), the max response, negative = inhibition was inactive: -15.9%.

Turning to `CP(=O)(Oc1ccccc1)N1CCOC1=O` (stereo unspecified), the max response, negative = inhibition was inactive: -9.06%.

Turning to `CCc1ccc(OP(C)(=O)Nc2cccnc2)cc1` (stereo unspecified), the max response, negative = inhibition was inactive: -3.01%.

Take `CCN(CC)CC(O)COC(=O)C(O)(c1ccccc1)C1CCCCC1` (stereo unspecified): the max response, negative = inhibition was inactive: -11.3%.

In the case of `COc1ccc(OP(C)(=O)Nc2ccc(Br)cc2)cc1` (stereo unspecified), the max response, negative = inhibition is inactive: 7.15%.

As for `CN(C)C(=O)c1c([N+](=O)[O-])cc([N+](=O)[O-])cc1[N+](=O)[O-]`, the max response, negative = inhibition was inactive: -14.8%.

Regarding `CC(C)(C)c1ccc(OP(C)(=O)O)cc1`, the max response, negative = inhibition was inactive: 1.62%.

For `COc1ccccc1OP(C)(=O)Nc1ccccc1Br` (stereo unspecified), the max response, negative = inhibition is inactive: 6.45%.

Regarding `CP(=O)(Nc1ccc(Cl)cc1)Oc1ccc(F)cc1` (stereo unspecified), the max response, negative = inhibition was inactive: 1.96%.

For `CCOC(=O)c1ccc(NP(C)(=O)Oc2ccc(Cl)cc2)cc1` (stereo unspecified), the max response, negative = inhibition is inactive: -8.37%.

With `CP(=O)(OC12CC3CC(CC(C3)C1)C2)OC12CC3CC(CC(C3)C1)C2`, the max response, negative = inhibition was inactive: -3.68%.

For the molecule `Nc1ccc2c(ccc3cccnc32)n1.O=[N+]([O-])c1cc([N+](=O)[O-])c(O)c([N+](=O)[O-])c1`, the max response, negative = inhibition is inactive: 0.229%.

For `COc1ccccc1OP(C)(=O)Nc1ccc(C)c(C)c1` (stereo unspecified), the max response, negative = inhibition is inactive: -6.96%.

For the molecule `COc1ccc(OP(C)(=O)Nc2ccccc2Br)cc1` (stereo unspecified), the max response, negative = inhibition is inactive: 0.589%.

With `Cc1cc(C)cc(OP(C)(=O)Nc2cccc(C(F)(F)F)c2)c1` (stereo unspecified), the max response, negative = inhibition is inactive: -24.1%.

With `CP(=O)(OCCOc1ccccc1)OCCOc1ccccc1`, the max response, negative = inhibition was inactive: -12.2%.

Regarding `CP(=O)(Nc1ccc(Cl)cc1Cl)Oc1ccccc1` (stereo unspecified), the max response, negative = inhibition is inactive: -20.8%.

On to `CCCCCCCCCCCCCCCC1C[N+](C)(C)CCOP(C)(=O)O1` (stereo unspecified), for which the max response, negative = inhibition is inactive: 0%.

On to `COc1ccc(OP(C)(=O)Nc2ccccn2)cc1` (stereo unspecified), for which the max response, negative = inhibition is inactive: -13.4%.

In the case of `CN(C)CCOC(=O)C(O)(c1ccccc1)C1CCCC1` (stereo unspecified), the max response, negative = inhibition was inactive: -2.33%.

In the case of `COc1ccccc1OP(C)(=O)Nc1ccc(Br)cc1` (stereo unspecified), the max response, negative = inhibition was inactive: 1.78%.

For the molecule `CP(=O)(Nc1ccccn1)Oc1ccccc1` (stereo unspecified), the max response, negative = inhibition was inactive: -7.29%.

For the molecule `COc1ccccc1OP(C)(=O)Nc1ccc(C)cc1C` (stereo unspecified), the max response, negative = inhibition was inactive: -7.39%.

`CCc1ccc(OP(C)(=O)O)cc1`: the max response, negative = inhibition is inactive: -6.23%.

Consider `O=[N+]([O-])c1cc([N+](=O)[O-])c(Nc2ccccn2)c([N+](=O)[O-])c1`, for which the max response, negative = inhibition was inactive: -9.85%.

As for `Cc1c(NP(C)(=O)Oc2ccc(C(C)C)cc2)c(=O)n(-c2ccccc2)n1C` (stereo unspecified), the max response, negative = inhibition is inactive: 1.79%.

As to `CP(=O)(Nc1ccccc1F)Oc1ccccc1` (stereo unspecified), the max response, negative = inhibition was inactive: -6.98%.

As to `CC(C)c1ccc(OP(C)(=O)Nc2ccc(SC(F)(F)F)cc2)cc1` (stereo unspecified), the max response, negative = inhibition is inactive: 4.22%.

Turning to `O=C(OCCN1CCN(CCOCc2ccccc2)CC1)C(O)(c1ccccc1)c1ccccc1`, the max response, negative = inhibition is inactive: -2.35%.

For the molecule `CCOC(=O)c1ccc(NP(C)(=O)Oc2ccc(F)cc2)cc1` (stereo unspecified), the max response, negative = inhibition was inactive: 5.51%.

In the case of `COc1ccc(OP(C)(=O)Nc2ccc(SC(F)(F)F)cc2)cc1` (stereo unspecified), the max response, negative = inhibition is inactive: -5.49%.

For the molecule `CP(=O)(Nc1ccccc1)Oc1ccc(F)cc1` (stereo unspecified), the max response, negative = inhibition is inactive: 0.0425%.

Consider `CCCCCOc1ccc(NP(C)(=O)Oc2ccc(Cl)cc2Cl)cc1` (stereo unspecified), for which the max response, negative = inhibition is inactive: -3.49%.

For the molecule `Cc1c([N+](=O)[O-])cc([N+](=O)[O-])c(Br)c1[N+](=O)[O-]`, the Potency was active: 21.2 µM.

`CCN(CC)CCCOC(=O)C(O)(c1ccccc1)C1CCCCC1` (stereo unspecified): the max response, negative = inhibition was inactive: -2.65%.

On to `CN(C)CCOC(=O)C(O)(c1ccccc1)C1CCCCC1` (stereo unspecified), for which the max response, negative = inhibition was inactive: -3.04%.

As to `COc1ccc(NP(C)(=O)Oc2ccccc2OC)cc1` (stereo unspecified), the Potency was active: 26.7 µM.

For `COc1ccc(OP(C)(=O)Nc2cccc(Br)c2)cc1` (stereo unspecified), the max response, negative = inhibition was inactive: -2.51%.

Take `Cc1c(C(c2ccc3c(c2)OCO3)c2c(C)n(C)n(-c3ccccc3)c2=O)c(=O)n(-c2ccccc2)n1C.O=[N+]([O-])c1cc([N+](=O)[O-])c(O)c([N+](=O)[O-])c1`: the max response, negative = inhibition is inactive: 4.07%.

As to `O=[N+]([O-])c1ccc(OP2(=O)COCCO2)cc1` (stereo unspecified), the max response, negative = inhibition was inactive: -9.77%.

For the molecule `Cc1cc(-c2cccc3ccccc23)c(C)cn1.O=[N+]([O-])c1cc([N+](=O)[O-])c(O)c([N+](=O)[O-])c1`, the max response, negative = inhibition is inactive: -2.64%.

With `CCOP(C)(=S)SCC(=O)NC(C)(CC)C(=O)O` (stereo unspecified), the max response, negative = inhibition is inactive: -0.379%.

`CP(=O)(Nc1ccc(SC(F)(F)F)cc1)Oc1ccc(F)cc1` (stereo unspecified): the max response, negative = inhibition is inactive: 4.29%.

In the case of `Cc1ccccc1NP(C)(=O)Nc1ccccc1C`, the max response, negative = inhibition was inactive: 0.857%.

Turning to `CP(=O)(Nc1ccc2c(c1)OCCO2)Oc1ccccc1` (stereo unspecified), the max response, negative = inhibition was inactive: -4.77%.

Take `CN(Cc1cccnc1)C(=O)COc1ccc(Cl)c(Cl)c1.O=[N+]([O-])c1cc([N+](=O)[O-])c(O)c([N+](=O)[O-])c1`: the max response, negative = inhibition is inactive: -1.66%.

Turning to `O=[N+]([O-])c1cc([N+](=O)[O-])c(-n2nnc3ccccc32)c([N+](=O)[O-])c1`, the Potency is active: 11.9 µM.

As for `O=[N+]([O-])c1cc([N+](=O)[O-])c(-c2cnn(-c3ccccc3)c2)c([N+](=O)[O-])c1`, the max response, negative = inhibition was inactive: 5.74%.

Take `O=[N+]([O-])c1cc([N+](=O)[O-])c(Nc2nnnn2CCO)c([N+](=O)[O-])c1`: the max response, negative = inhibition is inactive: -18.3%.

Take `CC1=C2N=C(C=C3N=C(C(C)=C4[N-][C@@](C)([C@@H]5N=C1[C@](C)(CCC(=O)NC[C@@H](C)OP(=O)([O-])O[C@H]1[C@@H](O)[C@@H](n6cnc7cc(C)c(C)cc76)O[C@@H]1CO)[C@H]5CC(N)=O)[C@@](C)(CC(N)=O)[C@@H]4CCC(N)=O)[C@@](C)(CC(N)=O)[C@@H]3CCC(N)=O)C(C)(C)[C@@H]2CCC(N)=O.[C-]#N.[Co+3]`: the max response, negative = inhibition was inactive: -20.4%.

With `CP(=O)(Nc1ccc(SC(F)(F)F)cc1)Oc1ccccc1` (stereo unspecified), the max response, negative = inhibition is inactive: -5.9%.

With `CCCOc1ccc(NP(C)(=O)Oc2ccc(Cl)cc2)cc1` (stereo unspecified), the max response, negative = inhibition is inactive: -5.2%.

As for `COc1ccccc1OP(C)(=O)Nc1c(C)cccc1C` (stereo unspecified), the max response, negative = inhibition is inactive: -14.6%.

Take `CN1CCCCC1COC(=O)C1(O)c2ccccc2CCc2ccccc21` (stereo unspecified): the max response, negative = inhibition is inactive: -8.14%.

As to `CC1=NCCc2c1[nH]c1ccccc21.O=[N+]([O-])c1cc([N+](=O)[O-])c(O)c([N+](=O)[O-])c1`, the max response, negative = inhibition is inactive: -5.28%.

With `CCOC(=O)c1ccc(NP(C)(=O)Oc2cc(C)cc(C)c2)cc1` (stereo unspecified), the max response, negative = inhibition is inactive: -6.88%.

Regarding `Cc1cc(C)cc(OP(C)(=O)Nc2ccc(C)cc2C)c1` (stereo unspecified), the max response, negative = inhibition is inactive: -7.5%.

As for `COc1ccccc1OP(C)(=O)Nc1cccc(Br)c1` (stereo unspecified), the max response, negative = inhibition is inactive: -16.9%.

Take `Cc1ccc(C)c(NP(C)(=O)Oc2ccccc2)c1` (stereo unspecified): the max response, negative = inhibition is inactive: 1.07%.

For the molecule `CP(=O)(Nc1cccc(Br)c1)Oc1ccccc1` (stereo unspecified), the max response, negative = inhibition is inactive: -3.33%.

As for `Cc1cc(C)cc(OP(C)(=O)Nc2ccccn2)c1` (stereo unspecified), the max response, negative = inhibition is inactive: 0.314%.

Turning to `CCN(CC)CCCOC(=O)C(O)(c1ccccc1)c1ccccc1`, the max response, negative = inhibition is inactive: -4.41%.

As to `COc1ccccc1-c1ccccn1.O=[N+]([O-])c1cc([N+](=O)[O-])c(O)c([N+](=O)[O-])c1`, the max response, negative = inhibition was inactive: -14.5%.

Take `CC(C)(C)c1ccc(OP(C)(=O)Nc2ccc(SC(F)(F)F)cc2)cc1` (stereo unspecified): the max response, negative = inhibition was inactive: -1.88%.

For the molecule `Cc1cccc(C)c1OP(C)(N)=O` (stereo unspecified), the max response, negative = inhibition was inactive: 9.36%.

Regarding `O=[N+]([O-])c1cc([N+](=O)[O-])c(Nc2cccnc2)c([N+](=O)[O-])c1`, the max response, negative = inhibition is inactive: -25.3%.

Turning to `Cc1cc(C)cc(OP(C)(N)=O)c1` (stereo unspecified), the max response, negative = inhibition was inactive: -4.14%.

Turning to `COc1ccccc1OP(C)(=O)Nc1cc(Cl)ccc1C` (stereo unspecified), the max response, negative = inhibition is inactive: 6.77%.

For `COc1ccc(OP(C)(=O)Nc2cccc(F)c2)cc1` (stereo unspecified), the max response, negative = inhibition is inactive: -2.27%.

For `COc1ccccc1OP(C)(=O)Nc1ccc(C)cc1` (stereo unspecified), the max response, negative = inhibition is inactive: 1.47%.

For `Cc1ccc(NP(C)(=O)Oc2ccccc2)c(C)c1` (stereo unspecified), the max response, negative = inhibition is inactive: -16.2%.

Consider `CCOC(=O)c1ccc(NP(C)(=O)Oc2ccccc2)cc1` (stereo unspecified), for which the max response, negative = inhibition is inactive: 3.11%.

On to `CP(=O)(Nc1ccccc1Br)Oc1ccccc1` (stereo unspecified), for which the max response, negative = inhibition is inactive: -9.29%.

With `COc1ccccc1OP(C)(=O)Nc1ccccc1` (stereo unspecified), the max response, negative = inhibition is inactive: -11.2%.

Turning to `CP(=S)(Nn1cnnc1)Oc1ccccc1` (stereo unspecified), the max response, negative = inhibition was inactive: -17%.

For the molecule `CCc1ccc(OP(C)(=O)N2CCN(c3ccc([N+](=O)[O-])cc3)CC2)cc1` (stereo unspecified), the max response, negative = inhibition was inactive: -12.7%.

Consider `CP(=O)(NC(=O)Nc1ccccc1)Oc1ccccc1` (stereo unspecified), for which the max response, negative = inhibition is inactive: -5.41%.

Consider `Cc1cc(C)cc(OP(C)(=O)Nc2ccc(SC(F)(F)F)cc2)c1` (stereo unspecified), for which the max response, negative = inhibition was inactive: -18.3%.

For the molecule `Cc1cccc(C)c1OP(C)(=O)Nc1ccc(SC(F)(F)F)cc1` (stereo unspecified), the max response, negative = inhibition is inactive: -7.58%.

For `CP(=O)(Nc1ccc(SC(F)(F)F)cc1)Oc1ccc(Cl)cc1` (stereo unspecified), the max response, negative = inhibition was inactive: -9.11%.

Turning to `CP(=O)(Oc1ccccc1)OC(c1ccccc1)C(F)(F)F` (stereo unspecified), the max response, negative = inhibition is inactive: 0.224%.

As to `CP(=O)(Nc1ccccn1)Oc1ccc(Cl)cc1` (stereo unspecified), the max response, negative = inhibition is inactive: -0.749%.

`CCOC(=O)c1ccc(NP(C)(=O)Oc2ccc(OC)cc2)cc1` (stereo unspecified): the max response, negative = inhibition was inactive: 4.01%.

With `O=[N+]([O-])c1cc([N+](=O)[O-])c(O)c([N+](=O)[O-])c1.c1ccc(Oc2ccncc2)cc1`, the max response, negative = inhibition was inactive: -8.76%.

`CCOP(C)(=S)SCC(=O)NC(C)C(=O)O` (stereo unspecified): the max response, negative = inhibition was inactive: -3.5%.
